# Literature values as cited in PMC11054638, “Transport of Non-Steroidal Anti-Inflammatory Drugs across an Oral Mucosa Epithelium In Vitro Model” (Pharmaceutics, 2024).
# Tested on: MRP4 (ABCC4)
# Conditions: cited from earlier work
smiles,measurement,value
O=C(O)Cc1ccccc1Nc1c(Cl)cccc1Cl [diclofenac],inhibitory effect on MRP4 function,weaker in comparison to ibuprofen
